Data as given in PMC6937391 (Leukemia research, 2019).

By UniProt entry, the sequences of proteins in these tests, tags left out. Where a name states a change or a piece, a line headed by the entry shows the natural chain unless it says otherwise.
UniProt P28074: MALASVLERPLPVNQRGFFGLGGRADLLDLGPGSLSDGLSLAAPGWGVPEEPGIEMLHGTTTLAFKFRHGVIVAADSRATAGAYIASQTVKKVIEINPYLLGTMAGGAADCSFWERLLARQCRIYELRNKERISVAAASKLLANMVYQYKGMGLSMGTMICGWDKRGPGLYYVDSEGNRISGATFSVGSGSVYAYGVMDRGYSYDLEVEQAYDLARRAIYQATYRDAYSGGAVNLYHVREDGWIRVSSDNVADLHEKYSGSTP

Biological target: CT-L (β5) proteasomal sub-catalytic activity (Homo sapiens, UniProt P28074)
Test: Cell-based proteasome activity assay
Conditions: Ki50 CT-L (β5), 24 h treatment

Ki (ARD cells): 24.3 ± 4.76 nM
Ki (MM.1R cells): 11.1 ± 2.72 nM
Ki (U266 cells): 6.12 ± 1.46 nM
SMILES: CC(C)C[C@H](NC(=O)CNC(=O)c1cc(Cl)ccc1Cl)B(O)O [IXA, ixazomib]
